Assay results published in ChEMBL document CHEMBL4028897 (J Med Chem, 2017).

organism: Homo sapiens; assay: Selectivity ratio of Ki for human dopamine D2 long receptor to Ki for human dopamine D3 receptor

| Structure (SMILES) | Ratio Ki |
| --- | --- |
| COc1ccccc1N1CCN(CCCSc2nnc(-c3ccccc3)n2C)CC1 | 40.2 |
| COc1ccccc1N1CCC2(CCN(CCCSc3nnc(-c4ccccc4)n3C)CC2)CC1 | 905 |
| COc1ccccc1N1CCC2(CCN(CCCSc3nnc(-c4ccccc4)n3C)CC2)C1 | 315 |
